Test results reported in ChEMBL document CHEMBL5154836, “4,5-Dihydroxypyrimidine Methyl Carboxylates, Carboxylic Acids, and Carboxamides as Inhibitors of Human Cytomegalovirus pUL89 Endonuclease” (J Med Chem, 2022).

How the values were obtained:
[1] = system: HFF; assay: Cytotoxicity against HFF cells assessed as cell viability incubated for 168 hrs by MTS-based Cell Titer assay; format: toxicity; details: human
[2] = molecular target: T1, Tripartite terminase subunit 3 (Human betaherpesvirus 5, UniProt P16732)
T1 sequence (P16732 whole entry): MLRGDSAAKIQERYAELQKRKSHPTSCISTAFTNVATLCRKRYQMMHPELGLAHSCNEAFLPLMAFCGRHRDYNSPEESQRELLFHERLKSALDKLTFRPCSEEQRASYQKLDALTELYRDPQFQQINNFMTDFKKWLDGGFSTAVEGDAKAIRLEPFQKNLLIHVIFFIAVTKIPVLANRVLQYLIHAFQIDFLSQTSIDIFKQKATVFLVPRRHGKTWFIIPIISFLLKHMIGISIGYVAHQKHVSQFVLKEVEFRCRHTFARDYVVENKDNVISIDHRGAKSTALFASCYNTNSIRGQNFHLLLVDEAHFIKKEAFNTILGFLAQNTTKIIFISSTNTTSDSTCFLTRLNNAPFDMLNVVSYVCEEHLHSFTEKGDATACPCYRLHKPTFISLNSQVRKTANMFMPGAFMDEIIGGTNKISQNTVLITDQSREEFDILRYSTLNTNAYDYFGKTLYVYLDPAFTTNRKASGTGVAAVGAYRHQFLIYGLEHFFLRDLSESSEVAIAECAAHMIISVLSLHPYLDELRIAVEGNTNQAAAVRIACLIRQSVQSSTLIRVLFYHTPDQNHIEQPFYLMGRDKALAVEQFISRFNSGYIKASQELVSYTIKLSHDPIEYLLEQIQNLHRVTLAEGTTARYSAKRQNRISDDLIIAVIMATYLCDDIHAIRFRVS

[3] = molecular target: T1, Tripartite terminase subunit 3; remark: listed apart in the source

COC(=O)c1nc(Cc2ccc(Cl)c(Cl)c2)[nH]c(=O)c1O
CC50 [1]: > 100 µM

O=C(NCc1ccc(C(F)(F)F)cc1)c1nc(-c2cccs2)[nH]c(=O)c1O
CC50 [1]: 43 µM

COC(=O)c1nc(-c2cccs2)nc(O)c1O
CC50 [1]: > 100 µM

COC(=O)c1nc(-c2ccc(-c3ccccc3)cc2)[nH]c(=O)c1O
CC50 [1]: > 100 µM

O=C(O)c1cn(Cc2ccc(Cl)c(F)c2)cc(O)c1=O
pIC50 [2]: 5.38 | pIC50 [3]: 5.38

O=C(O)c1nc(Cc2ccc(Cl)c(Cl)c2)nc(O)c1O
CC50 [1]: > 100 µM

pIC50: −log10 of the molar value.
